Drawing on ChEMBL document CHEMBL1129370, “Synthesis, ligand binding, and quantitative structure-activity relationship study of 3 beta-(4'-substituted phenyl)-2 beta-heterocyclic tropanes: evidence for an electrostatic interaction at the 2 beta-position” (J Med Chem, 1996), this text covers IC50 for one molecule.

Chains of the proteins cited; added tags and fusions are not shown.
UniProt P23977, whole entry: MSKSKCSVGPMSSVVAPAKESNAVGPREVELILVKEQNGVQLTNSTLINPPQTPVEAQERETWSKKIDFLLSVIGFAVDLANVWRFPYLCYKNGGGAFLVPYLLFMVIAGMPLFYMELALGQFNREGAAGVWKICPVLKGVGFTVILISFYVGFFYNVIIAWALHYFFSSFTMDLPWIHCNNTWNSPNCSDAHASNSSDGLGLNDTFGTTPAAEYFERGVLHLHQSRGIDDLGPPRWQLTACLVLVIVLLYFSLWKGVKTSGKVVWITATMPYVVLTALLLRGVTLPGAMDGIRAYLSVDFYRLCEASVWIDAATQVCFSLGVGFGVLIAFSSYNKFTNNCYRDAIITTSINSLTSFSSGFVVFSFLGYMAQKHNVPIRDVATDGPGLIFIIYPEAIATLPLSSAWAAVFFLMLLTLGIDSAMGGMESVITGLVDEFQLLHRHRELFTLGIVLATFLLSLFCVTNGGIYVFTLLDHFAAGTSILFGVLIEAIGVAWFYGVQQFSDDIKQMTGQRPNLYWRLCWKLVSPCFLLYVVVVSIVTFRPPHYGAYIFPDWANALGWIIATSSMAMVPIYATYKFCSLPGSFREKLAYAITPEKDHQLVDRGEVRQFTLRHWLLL

The target of the assay is Sodium-dependent dopamine transporter (Rattus norvegicus, UniProt P23977). In words: Binding affinity against Dopamine transporter using [3H]WIN-35 428 in rat striatum. It is filed as tissue-based.

Structures are written as SMILES.

Regarding `Cc1noc([C@H]2C(c3ccc(Cl)cc3)C[C@H]3CCC2N3C)n1` (stereo partly specified), the IC50 amounted to 4.05 nM.
